The values that follow come from patent publication US6777426B2, “Imidazole and imidazoline derivatives and uses thereof” (Synaptic Pharmaceutical Corporation, priority 1997, dated 2004).

Chains of the proteins cited; added tags and fusions are not shown.
UniProt P08913, whole entry: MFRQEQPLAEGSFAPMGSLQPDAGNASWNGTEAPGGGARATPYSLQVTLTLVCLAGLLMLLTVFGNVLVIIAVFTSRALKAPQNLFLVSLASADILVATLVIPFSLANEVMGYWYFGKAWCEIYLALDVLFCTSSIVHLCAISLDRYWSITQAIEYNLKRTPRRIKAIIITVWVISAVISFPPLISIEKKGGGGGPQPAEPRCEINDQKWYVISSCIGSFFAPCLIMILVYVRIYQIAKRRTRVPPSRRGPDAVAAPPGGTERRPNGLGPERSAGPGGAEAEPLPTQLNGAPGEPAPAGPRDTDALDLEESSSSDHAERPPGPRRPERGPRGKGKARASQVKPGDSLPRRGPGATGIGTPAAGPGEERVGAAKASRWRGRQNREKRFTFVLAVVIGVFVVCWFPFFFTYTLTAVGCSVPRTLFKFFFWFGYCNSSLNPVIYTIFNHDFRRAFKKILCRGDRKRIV

This assay has as its target T1, human α2a adrenergic receptor (Homo sapiens, UniProt P08913).
T1 construct: expressed in transfected cells; host or cells: LM(tk−) cells (L-α2A, ATCC CRL-11180), vector pCEXV-3
Description: α2 agonist activity: inhibition of forskolin-stimulated cAMP synthesis, α2a cells. As to conditions: cloned human α2a. In kind it is cell-based. How it is done:
Binding and functional assays were performed using stably transfected cells expressing human α adrenergic receptors. Equilibrium competition binding assays were performed with membrane preparations from cultured LM(tk−) cells stably transfected with the cloned human adrenoceptor subtypes except for a21, which was expressed In Y-1 cells, using [^3H]prazosin for α1 receptors and [^3H]rauwolscine for […].
These cell lines were prepared by transfecting cloned cDNA or cloned genomic DNA or constructs containing both genomic DNA and cDNA encoding the human a adrenergic receptors as described below.
The agonist activity (expressed as pEC50) was measured as a function of the ability to inhibit the forskolin-stimulated synthesis of cyclic adenosine monophosphate (cAMP). The stably transfected cells were incubated in Ham's F10 with 5 mM theophylline, 10 mM HEPES, 17 mM pargyline, and/or appropriate concentrations of forskolin for 20 min. at 37° C. in 5% CO2. The tested compounds were then added to a final concentration of 0.001 nM to 1 mM and incubated for an additional 15 min. at 37° C. in 5% CO2. […] The assessment of cAMP formation was determined by radioimmunoassay (cAMP radioimmunoassay kit; Advanced magnetics, Cambridge, Mass.). Radioactivity was quantified using a Packard COBRA Auto Gamma counter equipped with data reduction software.

For `Brc1c(NC2=NCCN2)ccc2nccnc12` [UK-14, 304, reference compound], the “α2a IA (Intrinsic Activity)” value is reported as “(1.00)”.
